Results taken from publication PMC3744640 (Bioorganic & medicinal chemistry letters, 2013).

System: 10 recombinant kinases
Conditions: 10 μM concentration

Q: O=C(NC12CC3CC(CC(C3)C1)C2)N[C@H]1CC[C@H](Oc2ccc(C(=O)O)cc2)CC1 [compound 11, trans-4-[4-(3-adamantan-1-yl-ureido)-cyclohexyloxy]-benzoic acid] was tested. Which “multi-kinase inhibition (in words)” value did it give?
A: no significant multi-kinase inhibition
